Assay results as given in US7307083B2, “Tetrahydro-acridine and dithiolane derivatives” (priority 2005, dated 2007).

Chains of the proteins cited; added tags and fusions are not shown. Residues count along the entry.
UniProt P06276, 29-602 limits assumed: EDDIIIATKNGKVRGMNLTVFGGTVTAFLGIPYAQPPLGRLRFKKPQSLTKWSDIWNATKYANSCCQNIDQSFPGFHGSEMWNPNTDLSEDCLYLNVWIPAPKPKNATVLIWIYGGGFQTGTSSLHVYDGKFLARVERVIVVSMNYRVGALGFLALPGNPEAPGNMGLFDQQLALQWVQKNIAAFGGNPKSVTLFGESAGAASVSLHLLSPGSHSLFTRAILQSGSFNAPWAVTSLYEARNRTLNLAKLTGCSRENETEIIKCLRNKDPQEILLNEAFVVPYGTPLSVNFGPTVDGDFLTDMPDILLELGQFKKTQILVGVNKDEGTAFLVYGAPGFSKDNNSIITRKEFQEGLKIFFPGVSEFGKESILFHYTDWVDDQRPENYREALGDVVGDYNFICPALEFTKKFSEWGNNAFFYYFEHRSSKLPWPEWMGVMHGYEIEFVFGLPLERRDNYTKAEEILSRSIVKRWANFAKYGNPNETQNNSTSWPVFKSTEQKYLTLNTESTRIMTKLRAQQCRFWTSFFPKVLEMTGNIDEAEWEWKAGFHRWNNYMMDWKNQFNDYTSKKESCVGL
UniProt P22303, 32-614 limits assumed: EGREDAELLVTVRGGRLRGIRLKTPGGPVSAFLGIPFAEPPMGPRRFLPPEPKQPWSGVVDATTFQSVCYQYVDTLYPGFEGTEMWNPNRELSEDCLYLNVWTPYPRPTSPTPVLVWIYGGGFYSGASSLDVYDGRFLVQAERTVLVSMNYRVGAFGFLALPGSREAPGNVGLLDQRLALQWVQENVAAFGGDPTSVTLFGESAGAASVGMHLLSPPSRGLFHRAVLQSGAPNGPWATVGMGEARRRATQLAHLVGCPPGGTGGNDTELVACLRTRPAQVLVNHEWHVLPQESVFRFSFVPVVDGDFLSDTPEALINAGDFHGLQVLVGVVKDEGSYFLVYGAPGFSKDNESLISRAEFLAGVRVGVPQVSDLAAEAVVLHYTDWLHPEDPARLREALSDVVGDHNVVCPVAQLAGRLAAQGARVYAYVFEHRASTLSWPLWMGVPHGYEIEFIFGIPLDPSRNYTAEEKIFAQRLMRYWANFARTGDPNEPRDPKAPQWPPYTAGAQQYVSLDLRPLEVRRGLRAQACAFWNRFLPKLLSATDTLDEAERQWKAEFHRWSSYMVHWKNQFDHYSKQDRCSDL

Experiments:
[1] = target: butyrylcholinesterase (BChE) from human serum (Homo sapiens, UniProt P06276); experiment: Inhibiting power on BChE (Ellman spectrophotometric method); format: biochemical; details: read-out: IC50 BChE, mean of two independent measurements, each in duplicate
[2] = target: human recombinant acetylcholinesterase (AChE or HuAChE) (Homo sapiens, UniProt P22303); details: read-out: IC50 AChE, mean of two independent measurements, each in duplicate

Work on `Nc1c2c(nc3cc(Cl)ccc13)CC(CNC(=O)CC1CCSS1)CC2` (centres unmarked) yielded an IC50 [1] of 2580 nM and an IC50 [2] of 215 nM.
